From PubChem BioAssay AID1259334 (Broad Institute, 2017)
Some tests of the compounds listed are not included; inactive here does not mean inactive elsewhere. The source made the active and inactive calls. No stated cut-off is given here; in the data, active means AC50 below about 11 µM.

Tested on: B cell line, TNFa signaling counterscreen reporter
Assay: TNFa signaling inhibitors in B cell line, dose response, counter-screen (AID 1259334);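 further: cells stimulated with TNFa after compound preincubation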

## C=C(C)C#CC(O)(C(=O)OC1CCN(C)CC1)c1ccccc1 (stereo unspecified)
  AC50: inactive: > 20 µM
